Measured values published in patent US20210395313A1, “PEPTIDE PAC1 ANTAGONISTS” (AMGEN INC., priority 2017, published 2021).

Key:
human PAC1 receptor = biological target: T1, human PAC1 receptor (Homo sapiens, UniProt P41586); test: LANCE Ultra cAMP accumulation antagonist assay in SHSY-5Y cells; assay type: cell-based;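 note: inhibition of cAMP accumulation evoked by PAC1 agonist at its EC80 in SHSY-5Y cells endogenously expressing receptor, 30 min preincubation then 15 min agonist, TR-FRET readout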
T1 construct: SHSY-5Y (human neuroblastoma cell line) and RG-2 (rat glioma cell line) cells endogenously express human and rat PAC1 receptors, respectively; endogenous in cells; host or cells: SHSY-5Y human neuroblastoma cells
T1 sequence (P41586 21-468): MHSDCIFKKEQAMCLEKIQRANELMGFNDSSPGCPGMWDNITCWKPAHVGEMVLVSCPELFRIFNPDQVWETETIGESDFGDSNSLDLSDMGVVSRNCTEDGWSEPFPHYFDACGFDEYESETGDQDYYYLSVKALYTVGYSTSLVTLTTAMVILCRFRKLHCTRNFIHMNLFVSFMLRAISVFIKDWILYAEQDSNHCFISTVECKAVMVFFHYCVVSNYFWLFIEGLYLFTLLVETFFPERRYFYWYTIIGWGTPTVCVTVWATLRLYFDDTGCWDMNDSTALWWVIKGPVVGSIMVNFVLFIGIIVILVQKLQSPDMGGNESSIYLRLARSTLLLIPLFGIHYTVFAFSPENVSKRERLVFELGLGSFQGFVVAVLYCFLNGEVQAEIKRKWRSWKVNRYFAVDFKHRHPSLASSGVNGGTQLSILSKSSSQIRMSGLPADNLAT

rat PAC1 receptor = biological target: T2, rat PAC1 receptor (Rattus norvegicus, UniProt P32215); test: LANCE Ultra cAMP accumulation antagonist assay in RG-2 cells; assay type: cell-based;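 note: RG-2 rat glioma cells endogenously expressing PAC1, test peptide preincubated 30 min, then PAC1 agonist added at its EC80 for 15 min, cAMP accumulation read by LANCE Ultra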
T2 construct: SHSY-5Y (human neuroblastoma cell line) and RG-2 (rat glioma cell line) cells endogenously express human and rat PAC1 receptors, respectively; endogenous in cells; host or cells: RG-2 rat glioma cells
T2 sequence (P32215 20-523): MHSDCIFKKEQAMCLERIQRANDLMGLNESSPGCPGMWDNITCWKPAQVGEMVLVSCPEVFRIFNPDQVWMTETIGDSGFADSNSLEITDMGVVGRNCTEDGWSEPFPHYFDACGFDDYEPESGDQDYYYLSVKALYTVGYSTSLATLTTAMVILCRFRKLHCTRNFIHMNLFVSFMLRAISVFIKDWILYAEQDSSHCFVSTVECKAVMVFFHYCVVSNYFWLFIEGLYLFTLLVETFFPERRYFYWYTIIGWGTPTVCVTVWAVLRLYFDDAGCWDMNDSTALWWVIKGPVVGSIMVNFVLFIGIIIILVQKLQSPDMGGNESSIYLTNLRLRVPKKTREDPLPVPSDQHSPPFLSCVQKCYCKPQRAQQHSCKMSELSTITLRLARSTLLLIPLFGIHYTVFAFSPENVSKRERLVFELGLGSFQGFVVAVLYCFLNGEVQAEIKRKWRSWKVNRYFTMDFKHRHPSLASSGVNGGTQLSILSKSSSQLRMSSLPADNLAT

Row | Structure (SMILES) | IC50 (human PAC1 receptor) | IC50 (rat PAC1 receptor)
1 | CC[C@H](C)[C@H](NC(=O)[C@H](C)NC(=O)[C@H](CCCCN)NC(=O)[C@H](CCCNC(=N)N)NC(=O)[C@H](Cc1ccccc1)NC(=O)[C@H](CCC(N)=O)NC(=O)[C@@H]1CSSC[C@H](N)C(=O)N[C@@H](CC(=O)O)C(=O)N[C@@H](C)C(=O)N[C@@H]([C@@H](C)O)C(=O)N1)C(=O)N[C@@H](CC(=O)O)C(=O)N[C@@H](CC(=O)O)C(=O)N[C@H]1CSSC[C@@H](C(=O)N[C@@H](CCSC)C(=O)N[C@@H](CCCCN)C(=O)N[C@@H](CCC(N)=O)C(=O)N[C@@H](CCCCN)C(=O)N[C@@H](CCCCN)C(=O)N[C@@H](CCCCN)C(=O)N[C@@H](CCC(=O)O)C(=O)N[C@@H](Cc2ccccc2)C(=O)N[C@@H](CCCCN)C(N)=O)NC(=O)C(C)(C)NC(=O)[C@H](CCCCN)NC(=O)[C@H](Cc2ccccc2)NC(=O)[C@H](CO)NC(=O)[C@H](CO)NC(=O)[C@H](Cc2c[nH]cn2)NC(=O)[C@H](Cc2c[nH]cn2)NC(=O)[C@H](C)NC(=O)[C@H](CCC(N)=O)NC(=O)[C@H](CCCCN)NC(=O)[C@H](CC(=O)O)NC1=O [compound 240] | 1 to 100 nM | 0.01 to 1 nM
2 | CCCC[C@H](NC(=O)[C@@H]1CSSC[C@H](NC(=O)[C@H](CC(=O)O)NC(=O)[C@H](CC(=O)O)NC(=O)[C@@H](NC(=O)[C@H](C)NC(=O)[C@H](CCCCN)NC(=O)[C@H](CCCNC(=N)N)NC(=O)[C@H](Cc2ccccc2)NC(=O)[C@H](CCC(N)=O)NC(=O)[C@@H]2CSSC[C@H](N)C(=O)N[C@@H](CC(=O)O)C(=O)N[C@@H](C)C(=O)N[C@@H]([C@@H](C)O)C(=O)N2)[C@@H](C)CC)C(=O)N[C@@H](CCC(N)=O)C(=O)N[C@@H](CCCCN)C(=O)N[C@@H](CCC(N)=O)C(=O)N[C@@H](C)C(=O)N[C@@H](Cc2c[nH]cn2)C(=O)N[C@@H](Cc2c[nH]cn2)C(=O)N[C@@H](CO)C(=O)N[C@@H](CC(N)=O)C(=O)N[C@@H](CO)C(=O)N[C@@H](Cc2ccccc2)C(=O)N[C@@H](CCCCN)C(=O)NC(C)(C)C(=O)N1)C(=O)N[C@@H](CCCCN)C(=O)N[C@@H](CCC(N)=O)C(=O)N[C@@H](CCCCN)C(=O)N[C@@H](CCCCN)C(=O)N[C@@H](CCCCN)C(=O)N[C@@H](CCC(=O)O)C(=O)N[C@@H](Cc1ccccc1)C(=O)N[C@@H](CCCCN)C(N)=O [compound 241] | 1 to 100 nM | 1 to 100 nM
3 | CCCC[C@H](NC(=O)[C@@H]1CSSC[C@H](NC(=O)[C@H](CC(=O)O)NC(=O)[C@H](CC(=O)O)NC(=O)[C@@H](NC(=O)[C@H](C)NC(=O)[C@H](CCCCN)NC(=O)[C@H](CCCNC(=N)N)NC(=O)[C@H](Cc2ccccc2)NC(=O)[C@H](CCC(N)=O)NC(=O)[C@@H]2CSSC[C@H](N)C(=O)N[C@@H](CC(=O)O)C(=O)N[C@@H](C)C(=O)N[C@@H]([C@@H](C)O)C(=O)N2)[C@@H](C)CC)C(=O)N[C@@H](CCC(N)=O)C(=O)N[C@@H](CCCCN)C(=O)N[C@@H](CCC(N)=O)C(=O)N[C@@H](C)C(=O)N[C@@H](Cc2c[nH]cn2)C(=O)N[C@@H](Cc2c[nH]cn2)C(=O)N[C@@H](CO)C(=O)N[C@@H](CO)C(=O)N[C@@H](C(C)C)C(=O)N[C@@H](Cc2ccccc2)C(=O)N[C@@H](CCCCN)C(=O)NC(C)(C)C(=O)N1)C(=O)N[C@@H](CCCCN)C(=O)N[C@@H](CCC(N)=O)C(=O)N[C@@H](CCCCN)C(=O)N[C@@H](CCCCN)C(=O)N[C@@H](CCCCN)C(=O)N[C@@H](CCC(=O)O)C(=O)N[C@@H](Cc1ccccc1)C(=O)N[C@@H](CCCCN)C(N)=O [compound 242] | 1 to 100 nM | 1 to 100 nM
4 | CC[C@H](C)[C@H](NC(=O)[C@H](C)NC(=O)[C@H](CCCCN)NC(=O)[C@H](CCCNC(=N)N)NC(=O)[C@H](Cc1ccccc1)NC(=O)[C@H](CCC(N)=O)NC(=O)[C@@H]1CSSC[C@H](N)C(=O)N[C@@H](CC(=O)O)C(=O)N[C@@H](C)C(=O)N[C@@H]([C@@H](C)O)C(=O)N1)C(=O)N[C@@H](CC(=O)O)C(=O)N[C@@H](CC(=O)O)C(=O)N[C@H]1CSSC[C@@H](C(=O)N[C@@H](CCSC)C(=O)N[C@@H](CCCCN)C(=O)N[C@@H](CCC(N)=O)C(=O)N[C@@H](CCCCN)C(=O)N[C@@H](CCCCN)C(=O)N[C@@H](CCCCN)C(=O)N[C@@H](CCC(=O)O)C(=O)N[C@@H](Cc2ccccc2)C(=O)N[C@@H](CCCCN)C(N)=O)NC(=O)C(C)(C)NC(=O)[C@H](CCCCN)NC(=O)[C@H](Cc2ccccc2)NC(=O)[C@H](CO)NC(=O)[C@H](CO)NC(=O)[C@H](Cc2c[nH]cn2)NC(=O)[C@H](Cc2c[nH]cn2)NC(=O)[C@H](C)NC(=O)[C@H](CCC(N)=O)NC(=O)[C@H](CCCCN)NC(=O)[C@H](CCC(N)=O)NC1=O [compound 243] | 1 to 100 nM | 1 to 100 nM
5 | CC[C@H](C)[C@H](NC(=O)[C@H](C)NC(=O)[C@H](CCCCN)NC(=O)[C@H](CCCNC(=N)N)NC(=O)[C@H](Cc1ccccc1)NC(=O)[C@H](CCC(N)=O)NC(=O)[C@@H]1CSSC[C@H](N)C(=O)N[C@@H](CC(=O)O)C(=O)N[C@@H](C)C(=O)N[C@@H]([C@@H](C)O)C(=O)N1)C(=O)N[C@@H](CC(=O)O)C(=O)N[C@@H](CC(=O)O)C(=O)N[C@H]1CSSC[C@@H](C(=O)N[C@@H](CCSC)C(=O)N[C@@H](CCCCN)C(=O)N[C@@H](CCC(N)=O)C(=O)N[C@@H](CCCCN)C(=O)N[C@@H](CCCCN)C(=O)N[C@@H](CCCCN)C(=O)N[C@@H](CCC(=O)O)C(=O)N[C@@H](Cc2ccccc2)C(=O)N[C@@H](CCCCN)C(N)=O)NC(=O)C(C)(C)NC(=O)[C@H](CCCCN)NC(=O)[C@H](Cc2ccccc2)NC(=O)[C@H](CO)NC(=O)[C@H](CC(N)=O)NC(=O)[C@H](CO)NC(=O)[C@H](Cc2c[nH]cn2)NC(=O)[C@H](Cc2c[nH]cn2)NC(=O)[C@H](C)NC(=O)[C@H](CCC(N)=O)NC(=O)[C@H](CCCCN)NC(=O)[C@H](CC(=O)O)NC1=O [compound 244] | 1 to 100 nM | 0.01 to 1 nM
6 | CC[C@H](C)[C@H](NC(=O)[C@H](C)NC(=O)[C@H](CCCCN)NC(=O)[C@H](CCCNC(=N)N)NC(=O)[C@H](Cc1ccccc1)NC(=O)[C@H](CCC(N)=O)NC(=O)[C@@H]1CSSC[C@H](N)C(=O)N[C@@H](CC(=O)O)C(=O)N[C@@H](C)C(=O)N[C@@H]([C@@H](C)O)C(=O)N1)C(=O)N[C@@H](CC(=O)O)C(=O)N[C@@H](CC(=O)O)C(=O)N[C@H]1CSSC[C@@H](C(=O)N[C@@H](CCSC)C(=O)N[C@@H](CCCCN)C(=O)N[C@@H](CCC(N)=O)C(=O)N[C@@H](CCCCN)C(=O)N[C@@H](CCCCN)C(=O)N[C@@H](CCCCN)C(=O)N[C@@H](CCC(=O)O)C(=O)N[C@@H](Cc2ccccc2)C(=O)N[C@@H](CCCCN)C(N)=O)NC(=O)C(C)(C)NC(=O)[C@H](CCCCN)NC(=O)[C@H](Cc2ccccc2)NC(=O)[C@H](C(C)C)NC(=O)[C@H](CO)NC(=O)[C@H](CO)NC(=O)[C@H](Cc2c[nH]cn2)NC(=O)[C@H](Cc2c[nH]cn2)NC(=O)[C@H](C)NC(=O)[C@H](CCC(N)=O)NC(=O)[C@H](CCCCN)NC(=O)[C@H](CC(=O)O)NC1=O [compound 245] | 1 to 100 nM | 0.01 to 1 nM
7 | CCCC[C@H](NC(=O)[C@@H]1CSSC[C@H](NC(=O)[C@H](CC(=O)O)NC(=O)[C@H](CC(=O)O)NC(=O)[C@@H](NC(=O)[C@H](C)NC(=O)[C@H](CCCCN)NC(=O)[C@H](CCCNC(=N)N)NC(=O)[C@H](Cc2ccccc2)NC(=O)[C@H](CCC(N)=O)NC(=O)[C@@H]2CSSC[C@H](N)C(=O)N[C@@H](CC(=O)O)C(=O)N[C@@H](C)C(=O)N[C@@H]([C@@H](C)O)C(=O)N2)[C@@H](C)CC)C(=O)N[C@@H](CCC(N)=O)C(=O)N[C@@H](CCCCN)C(=O)N[C@@H](CCC(N)=O)C(=O)N[C@@H](C)C(=O)N[C@@H](Cc2c[nH]cn2)C(=O)N[C@@H](Cc2c[nH]cn2)C(=O)N[C@@H](CO)C(=O)N[C@@H](CC(N)=O)C(=O)N[C@@H](CO)C(=O)N[C@@H](C(C)C)C(=O)N[C@@H](Cc2ccccc2)C(=O)N[C@@H](CCCCN)C(=O)NC(C)(C)C(=O)N1)C(=O)N[C@@H](CCCCN)C(=O)N[C@@H](CCC(N)=O)C(=O)N[C@@H](CCCCN)C(=O)N[C@@H](CCCCN)C(=O)N[C@@H](CCCCN)C(=O)N[C@@H](CCC(=O)O)C(=O)N[C@@H](Cc1ccccc1)C(=O)N[C@@H](CCCCN)C(N)=O [compound 246] | 1 to 100 nM | 1 to 100 nM
